In publication PMC5428777, “Molecular Characteristics and Serodiagnostic Potential of Dihydrofolate Reductase from Echinococcus granulosus” (Scientific Reports, 2017):

Target: T1, rEg-DHFR (Echinococcus granulosus, UniProt U6JJS2)
T1 sequence (U6JJS2 1-191): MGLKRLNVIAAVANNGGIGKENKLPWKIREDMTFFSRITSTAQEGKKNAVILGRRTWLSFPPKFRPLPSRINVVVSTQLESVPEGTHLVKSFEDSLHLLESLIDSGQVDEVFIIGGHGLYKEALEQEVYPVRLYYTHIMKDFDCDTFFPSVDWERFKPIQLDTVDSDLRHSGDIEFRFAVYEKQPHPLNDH
Test: Inhibition of rEg-DHFR enzyme activity by antifolates (DHFR assay kit, absorbance 340 nm)
Assay type: biochemical

CN(Cc1cnc2nc(N)nc(N)c2n1)c1ccc(C(=O)N[C@@H](CCC(=O)O)C(=O)O)cc1 [Methotrexate, methotrexate] gave an IC50 of 27.8 ± 1.03 nM.
